Measurements taken from patent US5385885A, “Inhibition of smooth muscle cell proliferation by antistasin and tick anticoagulant peptide” (priority 1991, dated 1995).

System: rat aortic smooth muscle cells
Assay: Mitogenic activity of blood coagulation factors on smooth muscle cells (3H-thymidine incorporation)
Assay type: cell-based, Wistar rats
Conditions: FIG. 1, 10 nM coagulation factor, 24 h
Description: Primary smooth muscle cell cultures were prepared from the thoracic and abdominal aorta of 2-3 month old Wistar rats essentially using the procedure of Reilly, C. F. (1990) J. Cell Physiol. 142,342 (1990). After removing as much fat and adherent adventitia as possible with scissors and forceps, the tissue was finely minced, enzymatically dissociated with successive 37° C. incubations in HBSS containing collagenase (Sigma, 0.5 mg/ml for 15 min.), then elastase (Sigma, 0.125 mg/ml for 30 min.) and again collagenase (60 min.). […] Cells were grown in Dulbecco's Minimal Essential Medium (DMEM) containing 10% fetal bovine serum (FBS) with antibiotics. […]
The prepared rat smooth muscle cells were seeded in Falcon 24 multiwell plates (10^5 cells/well) and cultured at 37° C., in a 5% CO2 atmosphere in 1 ml DMEM containing 10% FBS. […] The cells were washed twice with cold phosphate buffered saline (PBS), treated twice with 5% trichloroacetic acid (TCA) for 5 min., dissolved with 0.25N NaOH (0.4 ml) incubated at 37° C. for 60 min., mixed with 5 ml Ecolume (ICN Biomedicals, Costa Mesa, Calif.), and their radioactivity determined in a scintillation counter. […] Smooth muscle cell mitogenic activity produced by exogenous agents is expressed as % relative mitogenic activity which is defined as: [formula] […]

B1: bovine factor X: bovine coagulation factor X (protein, UniProt P00743 41-492, looked up)
Coagulation factor X: ANSFLEEVKQGNLERECLEEACSLEEAREVFEDAEQTDEFWSKYKDGDQCEGHPCLNQGHCKDGIGDYTCTCAEGFEGKNCEFSTREICSLDNGGCDQFCREERSEVRCSCAHGYVLGDDSKSCVSTERFPCGKFTQGRSRRWAIHTSEDALDASELEHYDPADLSPTESSLDLLGLNRTEPSAGEDGSQVVRIVGGRDCAEGECPWQALLVNEENEGFCGGTILNEFYVLTAAHCLHQAKRFTVRVGDRNTEQEEGNEMAHEVEMTVKHSRFVKETYDFDIAVLRLKTPIRFRRNVAPACLPEKDWAEATLMTQKTGIVSGFGRTHEKGRLSSTLKMLEVPYVDRSTCKLSSSFTITPNMFCAGYDTQPEDACQGDSGGPHVTRFKDTYFVTGIVSWGEGCARKGKFGVYTKVSNFLKWIDKIMKARAGAAGSRGHSEAPATWTVPPPLPL
  % relative mitogenic activity above control: about 70%
